The assay has as its target Prothrombin (Homo sapiens, UniProt P00734).

Experimental findings from ChEMBL document CHEMBL1131639, “Structural analysis of thrombin complexed with potent inhibitors incorporating a phenyl group as a peptide mimetic and aminopyridines as guanidine substitutes” (J Med Chem, 1998) are described below.

A word on the IC50: it is the midpoint of a concentration-inhibition curve. A lower IC50 goes with higher potency.

With `CC1CCN(C(=O)[C@H](CCCNC(=N)N)NS(=O)(=O)c2cccc3c(N(C)C)cccc23)CC1`, inhibition was half-maximal at 300 nM (IC50).
